Consider two substances from patent publication US12622977B2, “Antibody drug conjugate” (CHIA TAI TIANQING PHARMACEUTICAL GROUP CO., LTD., priority 2020, dated 2026).

pEC50: −log10 of the molar value.

Holding throughout (format): cell-based
The test system of test [1] is NCI-N87 Her2++ tumor cells. Briefly: Killing of Her2 positive target cell NCI-N87 with human PBMC effector cells (ADCC, CytoTox96). The following applies: effector-to-target ratio 10:1.
A further test concerns JIMT-1 tumor cells. Briefly: Killing of trastuzumab-resistant cell JIMT-1 with human PBMC effector cells (ADCC, CytoTox96). The following applies: human PBMC effector cells, effector-to-target ratio 20:1.
Test [2] has as its system BT474 Her2+++ tumor cells. The experiment in a line: Inhibition of proliferation of BT474 Her2+++ tumor cells (CCK-8). The following applies: BT474, 5 days.
The subject of another test is NCI-N87 cells. The experiment in a line: Proliferation inhibition of NCI-N87 cells by antibodies and antibody-drug conjugates (CTG). The following applies: drug range 5000 ng/mL to […].
In a further test the test system is BT474 cells. The experiment in a line: Proliferation inhibition of BT474 cells by antibodies and antibody-drug conjugates (CTG). The following applies: drug range 5000 ng/mL to […].
A further test relates to SK-BR-3 cells. Briefly: Proliferation inhibition of SK-BR-3 cells by antibodies and antibody-drug conjugates (CTG). The following applies: SK-BR-3, CTG, drug range 5000 ng/mL to […].
In test [3] the test system is BT474 Her2+++ tumor cells. Briefly: Killing of Her2 positive target cell BT474 with human PBMC effector cells (ADCC, CytoTox96). Conditions: effector-to-target ratio 10:1.

As for “Trastuzumab: recombinant humanized monoclonal antibody against HER2, trade name HERCEPTIN; prepared per WHO INN RL78 sequence [reference compound]”, the pEC50 (in test [1]; with JIMT-1 tumor cells) was 10.13 throughout. The substance also had a proliferation inhibition rate in test [2] of 54.12%. Also, the figures for the Inhibition rate with NCI-N87 cells, in the test with BT474 cells and in the test on SK-BR-3 cells were 34.51%, 67.91% and 20.36%, respectively.
In the case of 23C2 Her2-1, the “EC50 of killing of BT474 tumor cells” value in test [3] stood at 4.728 ng/mL.

In general, pEC50 refers to the EC50 on a negative log10 scale, so that one unit is a factor of ten.
